Test results from patent publication US12605350B2, “Composition for preventing, ameliorating, or treating disease caused by nitration of tyrosine in proteins comprising tyrosine as effective component” (INDUSTRY-ACADEMIC COOPERATION FOUNDATION GYEONGSANG …, priority 2020, dated 2026).

Tested on: mouse model of epileptic seizure which has been induced to have seizure by kainic acid
Test: epileptic seizure induced by kainic acid: seizure level, bodyweight, survival
Details: 5×L-Tyr (AIN-93G containing 905 mg/kg L-Tyr) compared to ND, kainic acid 30 mg/kg i.p.

In the case of `N[C@@H](Cc1ccc(O)cc1)C(=O)O` [L-tyrosine], the seizure level is reported as “statistically significant decrease in seizure level”.
